Laboratory results published in ChEMBL document CHEMBL4834486 (Bioorg Med Chem, 2021).

Tests used:
[1] = system: MCF7; test: Antiproliferative activity against human MCF7 cells assessed as inhibition of cell proliferation measured after 72 hrs by CCK-8 assay
[2] = system: MCF-10A; test: Cytotoxicity against human MCF-10A cells assessed as inhibition of cell proliferation measured after 72 hrs by CCK-8 assay; assay type: cell-based
[3] = system: MDA-MB-231; test: Antiproliferative activity against human MDA-MB-231 cells assessed as inhibition of cell proliferation measured after 72 hrs by CCK-8 assay

O=C(O)c1ccc(N(CCCl)CCCl)cc1
IC50 [1]: > 20 µM
IC50 [2]: > 40 µM
IC50 [3]: > 20 µM
